# From US20240360179A1, “STAPLED PEPTIDES AND METHODS THEREOF” (FOG PHARMACEUTICALS, INC., priority 2021, published 2024)
# By UniProt entry, the sequences of proteins in these tests, tags left out.
# UniProt P35222, whole entry: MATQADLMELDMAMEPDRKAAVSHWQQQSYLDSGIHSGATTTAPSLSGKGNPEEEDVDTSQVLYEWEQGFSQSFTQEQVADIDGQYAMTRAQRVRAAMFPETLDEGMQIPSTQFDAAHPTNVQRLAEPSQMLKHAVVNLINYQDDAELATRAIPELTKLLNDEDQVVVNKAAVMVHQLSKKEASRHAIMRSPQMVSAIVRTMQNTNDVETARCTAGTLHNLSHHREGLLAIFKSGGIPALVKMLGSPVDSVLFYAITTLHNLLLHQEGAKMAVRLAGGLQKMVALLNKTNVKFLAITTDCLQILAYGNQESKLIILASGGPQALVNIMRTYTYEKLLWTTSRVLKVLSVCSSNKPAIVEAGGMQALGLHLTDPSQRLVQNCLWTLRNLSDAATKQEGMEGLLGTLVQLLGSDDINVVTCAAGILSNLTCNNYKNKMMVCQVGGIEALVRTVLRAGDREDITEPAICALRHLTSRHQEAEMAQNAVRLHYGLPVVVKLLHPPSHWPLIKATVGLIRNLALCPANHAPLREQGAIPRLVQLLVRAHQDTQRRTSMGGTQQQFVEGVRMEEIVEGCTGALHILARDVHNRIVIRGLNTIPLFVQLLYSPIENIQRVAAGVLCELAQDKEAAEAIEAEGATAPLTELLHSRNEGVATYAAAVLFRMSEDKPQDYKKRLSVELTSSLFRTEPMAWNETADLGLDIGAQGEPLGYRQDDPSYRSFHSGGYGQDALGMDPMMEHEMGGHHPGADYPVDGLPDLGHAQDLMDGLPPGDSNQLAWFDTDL
# Target: T1, full-length B-Catenin (Uniprot ID P35222) (Homo sapiens, UniProt P35222)
# T1 construct: 10 nM full-length B-Catenin (Uniprot ID P35222)
# Experiment: biochemical
# Type: binding
# Settings: beta-Catenin FP IC50 (nM), competition fluorescence polarization
row,SMILES,IC50
1,"CC(=O)N1CCC[C@]12CCCCCCC1(CCCCCCCCOC(=O)N3CC[C@@]4(C3)NC(=O)[C@H](CCCCNC(=O)CC[C@@H](C(=O)N[C@@H](C)C(N)=O)NC(=O)[C@H](Cc3csc5ccccc35)NC(=O)[C@H](Cc3ccsc3)NC4=O)NC(=O)[C@H](Cc3ccccc3)NC(=O)[C@H](C)NC(=O)C(C)(C)NC(=O)[C@H](Cc3cccc(C(=O)O)c3)NC(=O)[C@H]([C@@H](C)O)NC1=O)NC(=O)[C@H](CC(C)(C)C)NC(=O)[C@H](CC(=O)O)NC2=O (relative stereo) [I-179, Ac-PL3-Asp-Npg-B5-Thr-3COOHF-Aib-Ala-Phe-Lys*3-PyrS2-3Thi-BztA-GlnR*3-Ala-NH2]",> 1000 nM
2,"CC(=O)N1CCC[C@]12CC=CCCCC1(CCCC=CCCCOC(=O)N3CC[C@@]4(C3)NC(=O)[C@H](CCCCNC(=O)CC[C@@H](C(=O)N[C@@H](C)C(N)=O)NC(=O)[C@H](Cc3csc5ccccc35)NC(=O)[C@H](Cc3ccsc3)NC4=O)NC(=O)[C@@H]([C@H](C)c3c(C)cccc3C)NC(=O)[C@H](C)NC(=O)C(C)(C)NC(=O)[C@H](Cc3cccc(C(=O)O)c3)NC(=O)[C@H](CC(=O)O)NC1=O)NC(=O)[C@H](CC(C)(C)C)NC(=O)[C@H](CC(=O)O)NC2=O (single isomer, unassigned) [I-602, Ac-PL3-Asp-Npg-B5-Asp-3COOHF-Aib-Ala-RbMeXylDA-Lys*3-PyrS2-3Thi-BztA-GlnR*3-Ala-NH2]",> 1000 nM
3,"CC(=O)N1CCC[C@]12CC=CCCCC1(CCCC=CCCCOC(=O)N3CC[C@@]4(C3)NC(=O)[C@H](CCCCNC(=O)CC[C@@H](C(=O)N[C@@H](C)C(N)=O)NC(=O)[C@H](Cc3csc5ccccc35)NC(=O)[C@H](Cc3ccsc3)NC4=O)NC(=O)[C@H]([C@H](c3ccccc3)C(C)C)NC(=O)[C@H](C)NC(=O)C(C)(C)NC(=O)[C@H](Cc3cccc(C(=O)O)c3)NC(=O)[C@H](CC(=O)O)NC1=O)NC(=O)[C@H](CC(C)(C)C)NC(=O)[C@H](CC(=O)O)NC2=O (single isomer, unassigned) [I-596, Ac-PL3-Asp-Npg-B5-Asp-3COOHF-Aib-Ala-SbiPrF-Lys*3-PyrS2-3Thi-BztA-GlnR*3-Ala-NH2]",> 1000 nM
4,"CCCC[C@@H]1NC(=O)[C@H](Cc2cccc(C(=O)O)c2)NC(=O)[C@H](CC(=O)O)NC(=O)C2(CCCC=CCCCOC(=O)N3CC[C@@]4(C3)NC(=O)[C@H](CCCCNC(=O)CC[C@@H](C(=O)N[C@@H](CC(C)C)C(=O)N[C@@H](CO)C(N)=O)NC(=O)[C@H](Cc3csc5ccccc35)NC(=O)[C@H](Cc3ccccc3C(F)(F)F)NC4=O)NC(=O)[C@H](Cc3ccccc3)NC(=O)[C@H](C)NC1=O)CCCC=CC[C@]1(CCCN1C(C)=O)C(=O)N[C@@H](CCO)C(=O)N[C@@H](CC(C)(C)C)C(=O)N2 (relative stereo) [I-146, Ac-PL3-Hse-Npg-B5-Asp-3COOHF-nLeu-Ala-Phe-Lys*3-PyrS2-2F3MeF-BztA-GlnR*3-Leu-Ser-NH2]",> 1000 nM
5,"CC(=O)N1CCC[C@]12CCCCCCC1(CCCCCCCCOC(=O)N3CC[C@@]4(C3)NC(=O)[C@H](CCC(=O)NCCCC[C@@H](C(N)=O)NC(=O)[C@H](Cc3csc5ccccc35)NC(=O)[C@H](Cc3ccsc3)NC4=O)NC(=O)[C@H](Cc3ccccc3)NC(=O)[C@H](C)NC(=O)[C@H](CCCCNC(C)C)NC(=O)[C@H](CCC(N)=O)NC(=O)[C@H](CC(=O)O)NC1=O)NC(=O)[C@H](CC1CCCCC1)NC(=O)[C@H](CC(N)=O)NC2=O (relative stereo) [I-158, Ac-PL3-Asn-Cha-B5-Asp-Gln-iPrLys-Ala-Phe-GlnR*3-PyrS2-3Thi-BztA-Lys*3-NH2]",> 1000 nM
6,"CC(=O)N1CCC[C@]12CC=CCCCC1(CCCC=CCCCOC(=O)N3CC[C@@]4(C3)NC(=O)[C@H](CCCCNC(=O)CC[C@@H](C(=O)N[C@@H](C)C(N)=O)NC(=O)[C@H](Cc3csc5ccccc35)NC(=O)[C@H](Cc3ccsc3)NC4=O)NC(=O)[C@H](C3CC3)NC(=O)[C@H](C)NC(=O)C(C)(C)NC(=O)[C@H](Cc3cccc(C(=O)O)c3)NC(=O)[C@H](CC(=O)O)NC1=O)NC(=O)[C@H](CC(C)(C)C)NC(=O)[C@H](CC(=O)O)NC2=O (relative stereo) [I-395, Ac-PL3-Asp-Npg-B5-Asp-3COOHF-Aib-Ala-2Cpg-Lys*3-PyrS2-3Thi-BztA-GlnR*3-Ala-NH2]",> 1000 nM
7,"CC(=O)N1CCC[C@]12CC=CCCCC1(CCCC=CCCCOC(=O)N3CC[C@@]4(C3)NC(=O)[C@H](CCCCNC(=O)CC[C@@H](C(=O)N[C@@H](CCCCN=[N+]=[N-])C(N)=O)NC(=O)[C@H](Cc3csc5ccccc35)NC(=O)[C@H](Cc3ccsc3)NC4=O)NC(=O)[C@H](Cc3ccccc3)NC(=O)[C@H](C)NC(=O)C(C)(C)NC(=O)[C@H](Cc3cccc(C(=O)O)c3)NC(=O)[C@H](CCC(=O)O)NC1=O)NC(=O)[C@H](CC(C)(C)C)NC(=O)[C@H](CCC(=O)O)NC2=O (relative stereo) [I-606, Ac-PL3-Glu-Npg-B5-Glu-3COOHF-Aib-Ala-Phe-Lys*3-PyrS2-3Thi-BztA-GlnR*3-AzLys-NH2]",> 1000 nM
8,"CNC(=O)C[C@@H]1NC(=O)[C@]2(CCCCCCC3(CCCCCCCCOC(=O)N4CC[C@@]5(C4)NC(=O)[C@H](CCCCNC(=O)CC[C@@H](C(=O)N[C@@H](C)C(N)=O)NC(=O)[C@H](Cc4csc6ccccc46)NC(=O)[C@H](Cc4ccsc4)NC5=O)NC(=O)[C@H](Cc4ccccc4)NC(=O)[C@H](C)NC(=O)C(C)(C)NC(=O)[C@H](Cc4cccc(C(=O)O)c4)NC(=O)[C@H](CC(=O)O)NC3=O)NC(=O)[C@H](CC(C)(C)C)NC1=O)CCCN2C(C)=O (relative stereo) [I-176, Ac-PL3-MeAsn-Npg-B5-Asp-3COOHF-Aib-Ala-Phe-Lys*3-PyrS2-3Thi-BztA-GlnR*3-Ala-NH2]",> 1000 nM

# Other lines, results leading:
row,IC50,SMILES
1,200 to 750 nM,"CC(=O)N1CCC[C@]12CC=CCCCC1(CCCC=CCCCOC(=O)N3CC[C@@]4(C3)NC(=O)[C@H](CC(=O)NCCCC[C@@H](C(N)=O)NC(=O)[C@H](Cc3csc5ccccc35)NC(=O)[C@H](Cc3ccsc3)NC4=O)NC(=O)[C@H](Cc3ccccc3)NC(=O)[C@H](C)NC(=O)[C@H](C)NC(=O)[C@H](Cc3cccc(C(=O)O)c3)NC(=O)[C@H](CC(=O)O)NC1=O)NC(=O)[C@H](CC(C)(C)C)NC(=O)[C@H](CC(=O)O)NC2=O (single isomer, unassigned) [I-36, Ac-PL3-Asp-Npg-B5-Asp-3COOHF-Ala-Ala-Phe-AsnR*3-PyrS2-3Thi-BztA-Lys*3-NH2]"
2,< 50 nM,"CC(=O)N1CCC[C@]12CC=CCCCC1(CCCC=CCCCOC(=O)N3CC[C@@]4(C3)NC(=O)[C@H](CCCCNC(=O)CC[C@@H](C(=O)N[C@@H](C)C(N)=O)NC(=O)[C@H](Cc3csc5ccccc35)NC(=O)[C@H](Cc3ccsc3)NC4=O)NC(=O)[C@H](Cc3ccc(Br)cc3)NC(=O)[C@H](C)NC(=O)C(C)(C)NC(=O)[C@H](Cc3cccc(C(=O)O)c3)NC(=O)[C@H](CC(=O)O)NC1=O)NC(=O)[C@H](CC(C)(C)C)NC(=O)[C@H](CC(=O)O)NC2=O (single isomer, unassigned) [I-572, Ac-PL3-Asp-Npg-B5-Asp-3COOHF-Aib-Ala-4BrF-Lys*3-PyrS2-3Thi-BztA-GlnR*3-Ala-NH2]"
3,< 50 nM,"CC(=O)N1CCC[C@]12CC=CCCCC1(CCCC=CCCCOC(=O)N3CC[C@@]4(C3)NC(=O)[C@@H](CCCNC(=O)CC[C@@H](C(=O)N[C@@H](C)C(N)=O)NC(=O)[C@H](Cc3csc5ccccc35)NC(=O)[C@H](Cc3ccsc3)NC4=O)NC(=O)[C@H](Cc3ccccc3)NC(=O)[C@H](C)NC(=O)C(C)(C)NC(=O)[C@H](Cc3cccc(C(=O)O)c3)NC(=O)[C@H](CC(=O)O)NC1=O)NC(=O)[C@H](CC(C)(C)C)NC(=O)[C@H](CC(=O)O)NC2=O (relative stereo) [I-558, Ac-PL3-Asp-Npg-B5-Asp-3COOHF-Aib-Ala-Phe-dOrn*3-PyrS2-3Thi-BztA-GlnR*3-Ala-NH2]"
4,< 50 nM,"CC(=O)N1CCC[C@]12CC=CCCCC1(CCCC=CCCCOC(=O)N3CC[C@@]4(C3)NC(=O)[C@H](CCCCNC(=O)CC[C@@H](C(=O)N[C@@H](C)C(N)=O)NC(=O)[C@H](Cc3cccc(Br)c3)NC(=O)[C@H](Cc3ccccc3C(F)(F)F)NC4=O)NC(=O)[C@H](Cc3ccccc3)NC(=O)[C@H](C)NC(=O)C(C)(C)NC(=O)[C@H](Cc3cccc(C(=O)O)c3)NC(=O)[C@H](CC(=O)O)NC1=O)NC(=O)[C@H](CC(C)(C)C)NC(=O)[C@H](CC(=O)O)NC2=O (relative stereo) [I-331, Ac-PL3-Asp-Npg-B5-Asp-3COOHF-Aib-Ala-Phe-Lys*3-PyrS2-2F3MeF-3BrF-GlnR*3-Ala-NH2]"
5,50 to 200 nM,"CC[C@H](C)[C@@H]1NC(=O)[C@]23CCN(C2)C(=O)OCCCC=CCCCC2(CCCC=CC[C@]4(CCCN4C(C)=O)C(=O)N[C@@H](CC(=O)O)C(=O)N[C@@H](CC(C)(C)C)C(=O)N2)C(=O)N[C@@H](CC(=O)O)C(=O)N[C@@H](Cc2cccc(C(=O)O)c2)C(=O)NC(C)(C)C(=O)N[C@@H](C)C(=O)N[C@@H](Cc2ccccc2)C(=O)N[C@@H](CCCCNC(=O)CC[C@@H](C(=O)N[C@@H](C)C(N)=O)NC(=O)[C@H](Cc2csc4ccccc24)NC1=O)C(=O)N3 (relative stereo) [I-536, Ac-PL3-Asp-Npg-B5-Asp-3COOHF-Aib-Ala-Phe-Lys*3-PyrS2-Ile-BztA-GlnR*3-Ala-NH2]"
6,< 50 nM,"CC(=O)N1CCC[C@]12CC=CCCCC1(CCCC=CCCCOC(=O)N3CC[C@@]4(C3)NC(=O)[C@H](CCCCNC(=O)CC[C@@H](C(=O)N[C@@H](C)C(N)=O)NC(=O)[C@H](Cc3csc5ccccc35)NC(=O)[C@H](Cc3ccsc3)NC4=O)NC(=O)[C@H](Cc3ccccc3)NC(=O)[C@H](CCc3ccccc3)NC(=O)C(C)(C)NC(=O)[C@H](Cc3cccc(C(=O)O)c3)NC(=O)[C@H](CC(=O)O)NC1=O)NC(=O)[C@H](CC(C)(C)C)NC(=O)[C@H](CC(=O)O)NC2=O (relative stereo) [I-530, Ac-PL3-Asp-Npg-B5-Asp-3COOHF-Aib-hPhe-Phe-Lys*3-PyrS2-3Thi-BztA-GlnR*3-Ala-NH2]"
7,750 to 1000 nM,"CC(=O)N1CCC[C@]12CC=CCCCC1(CCCC=CCCCOC(=O)N3CC[C@@]4(C3)NC(=O)[C@H](CC(=O)NCCCC[C@@H](C(N)=O)NC(=O)[C@H](Cc3csc5ccccc35)NC(=O)[C@H](Cc3ccsc3)NC4=O)NC(=O)[C@H](Cc3ccccc3)NC(=O)[C@H](C)NC(=O)[C@H](C)NC(=O)[C@H](Cc3cccc(C(=O)O)c3)NC(=O)[C@H](CC(=O)O)NC1=O)NC(=O)[C@H](CC(C)(C)C)NC(=O)[C@H](CC(=O)O)NC2=O (single isomer, unassigned) [I-35, Ac-PL3-Asp-Npg-B5-Asp-3COOHF-Ala-Ala-Phe-AsnR*3-PyrS2-3Thi-BztA-Lys*3-NH2]"
